{"sequences": {"note": "Protein sequences, listed by entry. Tags and fused reporters are not part of them.", "UniProt P42574, whole entry D9A/D28A/D175A": "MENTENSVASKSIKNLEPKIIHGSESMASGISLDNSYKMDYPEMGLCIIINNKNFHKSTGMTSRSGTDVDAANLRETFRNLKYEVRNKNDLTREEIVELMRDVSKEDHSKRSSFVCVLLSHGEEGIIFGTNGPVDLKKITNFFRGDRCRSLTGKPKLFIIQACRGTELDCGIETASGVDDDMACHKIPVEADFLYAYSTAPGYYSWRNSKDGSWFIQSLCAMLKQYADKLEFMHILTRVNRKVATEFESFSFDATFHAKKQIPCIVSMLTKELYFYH"}, "source": "PubChem BioAssay AID463141", "about": "(The Scripps Research Institute Molecular Screening Center, 2010)", "note": "The list shows a part of the results, in another mix than the full data. Some structures show a salt or complex split into parts, the way the source records it. Active and inactive are the calls of the source.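 How the source made its calls: active means activation above the mean of all tested compounds plus 3 SD (cut at about 21% in these data); inactive means the rest.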", "data": [{"molecular_target": "Caspase-3 (Homo sapiens) (UniProt P42574)", "assay": "activators of human procaspase-3 D3A mutant, primary screen, biochemical, absorbance, PC-3 D3A mutant, single concentration (AID 463141);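 further: 0% = DMSO alone and 100% = DMSO wells spiked with extra 5 µM PC-3 D3A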", "conditions": "recombinant procaspase-3 D3A, Ac-DEVD-pNA absorbance 405 nm; at 8.5 µM; active compounds read high", "values": [{"compound": "CC(C)c1ccc(OP(C)(=O)Nc2ccc(SC(F)(F)F)cc2)cc1", "note": "(stereo unspecified)", "activation": "inactive: 1.5%"}, {"compound": "CP(=O)(Nc1ccccc1F)Oc1ccccc1", "note": "(stereo unspecified)", "activation": "inactive: 0.02%"}, {"compound": "COc1ccc2c(c1O)-c1c(O)c(OC)cc3c1[C@H](C2)[N+](C)(C)CC3.O=[N+]([O-])c1cc([N+](=O)[O-])c([O-])c([N+](=O)[O-])c1[O-]", "activation": "inactive: 5.87%"}, {"compound": "O=C(OCCN1CCN(CCOCc2ccccc2)CC1)C(O)(c1ccccc1)c1ccccc1", "activation": "inactive: -3.8%"}, {"compound": "O=C(OC1CN2CCC1CC2)c1ccc([N+](=O)[O-])cc1", "note": "(stereo unspecified)", "activation": "inactive: 0.01%"}, {"compound": "COc1ccc(OP(C)(=O)Nc2ccc(SC(F)(F)F)cc2)cc1", "note": "(stereo unspecified)", "activation": "inactive: 0.98%"}, {"compound": "CCOC(=O)c1ccc(NP(C)(=O)Oc2ccc(F)cc2)cc1", "note": "(stereo unspecified)", "activation": "inactive: -4.15%"}, {"compound": "O=[N+]([O-])c1cc([N+](=O)[O-])c(OC2CCCCC2O)c([N+](=O)[O-])c1", "note": "(stereo unspecified)", "activation": "inactive: 1.88%"}, {"compound": "CCCCCOc1ccc(NP(C)(=O)Oc2ccc(Cl)cc2Cl)cc1", "note": "(stereo unspecified)", "activation": "inactive: -2.85%"}, {"compound": "CP(=O)(Nc1ccccc1)Oc1ccc(F)cc1", "note": "(stereo unspecified)", "activation": "inactive: 1.04%"}, {"compound": "CCN(CC)CCCOC(=O)C(O)(c1ccccc1)C1CCCCC1", "note": "(stereo unspecified)", "activation": "inactive: -4.71%"}, {"compound": "COc1ccc(NP(C)(=O)Oc2ccccc2OC)cc1", "note": "(stereo unspecified)", "activation": "inactive: -3.88%"}, {"compound": "CN(C)CCOC(=O)C(O)(c1ccccc1)C1CCCCC1", "note": "(stereo unspecified)", "activation": "inactive: -0.19%"}, {"compound": "COc1ccc(OP(C)(=O)Nc2cccc(Br)c2)cc1", "note": "(stereo unspecified)", "activation": "inactive: -2.51%"}, {"compound": "O=[N+]([O-])c1cc([N+](=O)[O-])c(NCC2CCS(=O)(=O)C2)c([N+](=O)[O-])c1", "note": "(stereo unspecified)", "activation": "inactive: -2.67%"}, {"compound": "CCOP(C)(=S)SCC(=O)NC(C)(CC)C(=O)O", "note": "(stereo unspecified)", "activation": "inactive: 9.43%"}, {"compound": "CP(=O)(Nc1ccc(SC(F)(F)F)cc1)Oc1ccc(F)cc1", "note": "(stereo unspecified)", "activation": "inactive: 1.35%"}, {"compound": "Cc1ccccc1NP(C)(=O)Nc1ccccc1C", "activation": "inactive: 0.81%"}, {"compound": "CP(=O)(Nc1ccc2c(c1)OCCO2)Oc1ccccc1", "note": "(stereo unspecified)", "activation": "inactive: 3.31%"}, {"compound": "CCc1ccc(OP(C)(=O)Nc2cccnc2)cc1", "note": "(stereo unspecified)", "activation": "inactive: -0.6%"}, {"compound": "CP(=O)(Oc1ccccc1)N1CCOC1=O", "note": "(stereo unspecified)", "activation": "inactive: 3.38%"}, {"compound": "O=C(OCCCN1CCCC1)C(O)(c1ccccc1)C1CCCCC1", "note": "(stereo unspecified)", "activation": "inactive: 0.76%"}, {"compound": "COc1ccccc1OP(C)(=O)Nc1c(C)n(C)n(-c2ccccc2)c1=O", "note": "(stereo unspecified)", "activation": "inactive: -2.46%"}, {"compound": "COc1ccc(OP(C)(=O)Nc2ccc(Br)cc2)cc1", "note": "(stereo unspecified)", "activation": "inactive: -0.83%"}, {"compound": "CCN(CC)CC(O)COC(=O)C(O)(c1ccccc1)C1CCCCC1", "note": "(stereo unspecified)", "activation": "inactive: 7.42%"}, {"compound": "CN(C)C(=O)c1c([N+](=O)[O-])cc([N+](=O)[O-])cc1[N+](=O)[O-]", "activation": "inactive: 2.44%"}]}]}
